Laboratory results taken from patent US4755381A, “Klebsiella capsular polysaccharide vaccine” (Swiss Serum and Vaccine Institute Berne, priority 1986, dated 1988).

Tested on: K. pneumoniae capsular type 2
Experiment: Protection of mice against fatal Klebsiella burn wound sepsis by IVIG preparations
Type: in vivo
Details: 500 mg/kg i.v.
Protocol: ^1 Significance refers to mortality as compared to the human
albumintreated control group. NS = not significant, p > 0.05. Calculated
The ability of Globuman and Klebsiella immune-IVIG to prevent fatal Klebsiella burn wound sepsis when used in a prophylactic manner was determined. Mice (18-20 g female, NMRI strain) each received graded doses of the IVIG preparations (5 mg/kg to 500 mg/kg) or human albumin at 500 mg/kg (Albuman, Swiss Serum and Vaccine Institute, Berne, Switzerland) intravenously in 0.2 ml. Approximately 24 hours later the mice were burned and infected with 60 K. pneumoniae capsular type 2 bacteria. The mortality rate for the group of mice which received human albumin as a control was 87%.

In the case of “Human Albumin: human albumin (Albuman, Swiss Serum and Vaccine Institute), control”, the “Mean time to death” value was 103.4 h, the “Mortality (%)” value was 87% and the “Mortality Nr. dead/total” value was 13/15.
